# Antibody variant affinities, Ab-91 heavy chain, assay 2

The measurements come from Engelhart et al. 2022 (doi:10.1038/s41597-022-01779-4) through the FLAb antibody collection.

Target: peptide PDVDLGDISGINAS, taken from heptad repeat 2 (HR2) of SARS-CoV-2 spike.

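The parent was found by panning a naive human phage display library on the peptide. Library AAYL51 holds single substitutions and randomly drawn double and triple substitutions in the CDRs. The scFvs were displayed on barcoded MATa yeast, the peptide on MATalpha yeast. After mating in shaken culture at 30 °C for 16 h, diploids were selected and their barcode pairs sequenced. Read counts were normalised to the haploid input and turned into Kd by a linear fit to BCL2-family pairs of known affinity, for each replicate. There are three technical replicates.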

Parent scFv Ab-91: VL joined to VH by a 15-residue (Gly4Ser)3 linker. Changes lie in the heavy chain CDRs alone.
VL: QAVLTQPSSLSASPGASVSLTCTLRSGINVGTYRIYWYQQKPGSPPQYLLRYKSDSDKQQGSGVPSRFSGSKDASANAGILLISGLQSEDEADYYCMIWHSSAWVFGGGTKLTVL
VH: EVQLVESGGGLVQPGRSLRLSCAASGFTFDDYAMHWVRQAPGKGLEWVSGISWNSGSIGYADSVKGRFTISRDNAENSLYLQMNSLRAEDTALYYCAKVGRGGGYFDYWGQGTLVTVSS

Each variant is given by its three heavy chain CDRs, as the data file delimits them; those of the parent are GFTFDDYAMH, GISWNSGSIGYADSVK, VGRGGGYFDY.
Scale: log10 of Kd in nM, estimated from mating counts; low values are strong binders.
The mean shown is taken over the replicates in which the pair was detected.
Where no diploid with the target was found in any replicate, the entry reads "not detected": below detection, most likely a poor binder, though not proof of it.
Order: sorted from the lowest average up, undetected variants last.
Three control strains display no target. For library AAYL51, 21% of the pairings with them gave a signal, with a median of 4.54 and one signal in twenty below 3.26, so weak values seen in few replicates may be background.

CDR-H1 | CDR-H2 | CDR-H3 | mean log10 Kd (nM) | replicates with signal
GFTFDRYAMH | GISWNSGSIGYADSVK | VGRCGGYFDY | 1.20 | 3/3
GFTFDDYAIH | GISYNSGMIGYADSVK | VGRGGGYFDY | 1.75 | 3/3
GFTFDQYAMH | GISWNSGSIGYADSVK | VGRGGPYFDY | 1.89 | 3/3
GFTFMDYAMH | GISWNSGSIGYADSVK | VGNGIGYFDY | 2.00 | 3/3
GFTFDDYAMH | GISWNSGSHGYADSVK | VGRGGGFFDY | 2.15 | 3/3
GFVFDDYAMH | GISWNSGCEGYADSVK | VGRGGGYFDY | 2.31 | 3/3
GFFFDEYAMH | GISWNSGSIGYASSVK | VGRGGGYFDY | 2.78 | 3/3
GFHFDDYAMH | GISWNSGSIGYEDSVK | VGRGGGTFDY | 2.82 | 3/3
GFEWDDYAMH | GISWNSGSIGYADSVK | VGRGGGYFDH | 3.04 | 3/3
GFTFDDYATH | GISWCSGSIGYADSVK | VGRGGGYFDY | 3.27 | 1/3
GFTFDDYAAH | GCSWNSGSIGYAHSVK | VGRGGGYFDY | 3.34 | 1/3
GFTFDSYAMH | GASWNSGSAGYADSVK | VGRGGGYFDY | 3.44 | 1/3
GFTFADYAMH | GISWNSGSIGYADSVK | FGRGGGYLDY | 3.58 | 1/3
GFTFDDYAMH | GISWNGGSIGYADSMK | VGRGGGYADY | 3.69 | 3/3
GFTFDDYALH | GISWNSGKIGYADSVK | VGRGGGYFDL | 3.92 | 1/3
GFTFDDYAMH | GIGWNSGNIGYADPVK | VGRGGGYFDY | 3.94 | 2/3
GFTFDNYAMH | GIYWNSGSIGYANSVK | VGRGGGYFDY | 3.98 | 1/3
GFTFDDVKMH | GISWNSGSIGYADSVK | PGRGGGYFDY | 4.03 | 1/3
GFTCDDYAMV | GISWNSGSIGYADSVL | VGRGGGYFDY | 4.03 | 3/3
GFNFDDYAMH | GISWNSGSIGYADSVK | VGRGGGYFWY | 4.09 | 1/3
MFTFDDYAMH | GDSWNSGSIGYADQVK | VGRGGGYFDY | 4.12 | 2/3
GFTFDGYAMH | GISWNSSSIGYADSVK | VGNGGGYFDY | 4.13 | 3/3
AFTFDDYAMH | GISWHSGSIGYADSVK | VGRGGGYFCY | 4.15 | 1/3
GSTFDDYAMH | GISWNSISIGYADSVK | VGRGGGYFDM | 4.16 | 1/3
NFTFDDYAMH | GISWMSGSIGYADSVK | VYRGGGYFDY | 4.18 | 1/3
GFTFDDYAMH | GIAWNSGSIGYADHVK | VGRHGGYFDY | 4.26 | 2/3
GFTFDNYAMH | GISWLSGSIGYADSYK | VGRGGGYFDY | 4.42 | 2/3
GFTFDKYAMH | GIDWNSGSIGYADSVK | MGRGGGYFDY | 4.44 | 2/3
GFTFDDYAMK | GNSWNSGSIPYADSVK | VGRGGGYFDY | 4.48 | 1/3
EFTFDDPAMH | GISWNSGSIGYADSVK | EGRGGGYFDY | 4.52 | 1/3
GFFFDDYAQH | VISWNSGSIGYADSVK | VGRGGGYFDY | 4.61 | 1/3
NFTFDDTAMM | GISWNSGSIGYADSVK | VGRGGGYFDY | 4.69 | 2/3
GFTGDDYAMH | TIWWNSGSIGYADSVK | VGRGGGYFDY | 4.72 | 2/3
GFTFDDYAMH | GISWWSGSIGCADSVK | VGRGGGYFDG | 4.78 | 1/3
YFTFDDYAMN | GISWNSGSIGYADDVK | VGRGGGYFDY | 4.78 | 2/3
SFTFDDYAMH | GISWNSGSIKIADSVK | VGRGGGYFDY | 4.85 | 3/3
GFGFDDYAMH | GASWNSGSIGYADSVQ | VGRGGGYFDY | 4.85 | 1/3
GFTFDDYAMH | GISWNSGSSGYADNVK | VGHGGGYFDY | 4.86 | 1/3
GFTFDDYAMH | GISWNFGSIGYADSSK | VGRGGGYFRY | 4.92 | 2/3
GFTFDDYAMH | GISWNAGSIGYADSDK | VGRGGGCFDY | 4.94 | 1/3
AFTTDDYAMH | GISWNSGSIGYADSVK | VGRGGGYFDY | 4.94 | 2/3
GFTFDDYQMH | GISWNSGSRGYADSVT | VGRGGGYFDY | 5.01 | 3/3
GFTFDDYAMH | GISWNSGSIGYAPSVK | VGRGGGLMDY | 5.03 | 2/3
GFTFDDYAMH | GISWNSGSIGYMDSVK | VGLGGGYFWY | 5.03 | 2/3
GFTFDDYAMH | GISWVSGSIGYNDSVK | VGRPGGYFDY | 5.32 | 2/3
GFTFDDYAMH | GISWNSGSISTADSVK | VGRGHGYFDY | 5.62 | 1/3
GFTVDDYAMH | GISWNSGSIGYADQVK | VGRGGGYFPY | 5.87 | 3/3
GFTFDDYAIH | GISWNSSSIGYADSVK | VPRGGGYFDY | not detected | 0/3
GFTFDDYAMH | GIGWNIGSIGYADSVL | VGRGGGYFDY | not detected | 0/3
EFTKDDYAMH | GISWNSGSIGYADSVK | VGRGGGYFDH | not detected | 0/3
GFTFDDYAMH | GWSWNSGSIGYADKLK | VGRGGGYFDY | not detected | 0/3
GFTFDDYNMH | GISWNSGSKGYADSVK | VGRGGGYVDY | not detected | 0/3
GFTFDFYAMH | GISWNTGSIGYADPVK | VGRGGGYFDY | not detected | 0/3
GFTFDDKAMH | GISWNSGSIGYADSVE | VGRGGGYNDY | not detected | 0/3
GFTFDDHAMH | GISTNQGSIGYADSVK | VGRGGGYFDY | not detected | 0/3
GFTFDDYAMH | GIHWNSGSIGYVDSVK | VGRGIGYFDY | not detected | 0/3
GFTFDDYTMH | GHSWNSGSHGYADSVK | VGRGGGYFDY | not detected | 0/3
GFTKDHYAMH | GISWWSGSIGYADSVK | VGRGGGYFDY | not detected | 0/3
GFTFDDYAMH | GISWNSGAQGHADSVK | VGRGGGYFDY | not detected | 0/3
GATFDDYAMH | GISWNSGSIGESDSVK | VGRGGGYFDY | not detected | 0/3
GFTFDDYATH | GISWNSGSIGYADSVM | VGRGGGYFWY | not detected | 0/3
GVTFDDYAMH | GISWNSGSIGYSDSVK | VGRGGGYFDH | not detected | 0/3
GATFDDYAMH | KISWNSGSIGYADSVK | VGRKGGYFDY | not detected | 0/3
GFTFDDYAMH | GISWNSGSIGYADSVK | MGRGWGYFDY | not detected | 0/3
GFTFDDYAMH | GISWNSGSIGYADSVK | VLRGGGYFRY | not detected | 0/3
GFTFDDYIGH | GISWNSGSIGYADSVA | VGRGGGYFDY | not detected | 0/3
GFTFDDYAMH | PISWNSGSIGYADSTK | VFRGGGYFDY | not detected | 0/3
GSTFDDYAMH | GISWNSGSITYADSVK | VGRAGGYFDY | not detected | 0/3
GTTFDMYAMH | GISWNSGSIGYADSEK | VGRGGGYFDY | not detected | 0/3
GFTFDDYAMH | LISWNSGSIGYADSVT | VGRGGGYSDY | not detected | 0/3
GFTFDDYAMP | GISWNSGAIGYADSVK | GGRGGGYFDY | not detected | 0/3
GFTLDDYAKH | GISWNSGSIGYADSVK | VGRGGGYFWY | not detected | 0/3
GFTVDDYAMH | GISWNSGSIGYEPSVK | VGRGGGYFDY | not detected | 0/3

Picked from the list: the 4 lowest averages where every replicate gave a value.

CDR-H1 | CDR-H2 | CDR-H3 | mean log10 Kd (nM) | replicates with signal
GFTFDRYAMH | GISWNSGSIGYADSVK | VGRCGGYFDY | 1.20 | 3/3
GFTFDDYAIH | GISYNSGMIGYADSVK | VGRGGGYFDY | 1.75 | 3/3
GFTFDQYAMH | GISWNSGSIGYADSVK | VGRGGPYFDY | 1.89 | 3/3
GFTFMDYAMH | GISWNSGSIGYADSVK | VGNGIGYFDY | 2.00 | 3/3

For reference, the parent read 1.86 as the reference entry and 0.88 as a member of this library.